Results: PMC4316792, “The dehydrogenase region of the NADPH oxidase component Nox2 acts as a protein disulfide isomerase (PDI) resembling PDIA3 with a role in the binding of the activator protein p67^phox” (Frontiers in Chemistry, 2015)

Tested on: NusA-Nox2(357–570)
Test: Inhibition of PDI reductase activity of NusA-Nox2(357–570), DE-GSSG reduction
Details: 50 μM

With `O=[As]c1ccccc1` (stereo not shown) the “effect on DTT-dependent disulfide reductase activity of NusA-Nox2(357–570)” value was “abolished”.
